Results published in patent US10023614B2, “Oral peptide inhibitors of interleukin-23 receptor and their use to treat inflammatory bowel diseases” (Protagonist Therapeutics, Inc., priority 2014, dated 2018).
Read-outs that look alike come from different tables or passages of the source.

Columns and labels:
[1] = target: human IL-23R (Homo sapiens, UniProt Q5VWK5); type: binding
[2] = target: T1, Natural killer (NK) cells (Homo sapiens, UniProt Q5VWK5); assay: NK Cell Assay (IL-23-dependent IFNγ production); type: cell-based; conditions: Table 14
T1 sequence (Q5VWK5 24-629): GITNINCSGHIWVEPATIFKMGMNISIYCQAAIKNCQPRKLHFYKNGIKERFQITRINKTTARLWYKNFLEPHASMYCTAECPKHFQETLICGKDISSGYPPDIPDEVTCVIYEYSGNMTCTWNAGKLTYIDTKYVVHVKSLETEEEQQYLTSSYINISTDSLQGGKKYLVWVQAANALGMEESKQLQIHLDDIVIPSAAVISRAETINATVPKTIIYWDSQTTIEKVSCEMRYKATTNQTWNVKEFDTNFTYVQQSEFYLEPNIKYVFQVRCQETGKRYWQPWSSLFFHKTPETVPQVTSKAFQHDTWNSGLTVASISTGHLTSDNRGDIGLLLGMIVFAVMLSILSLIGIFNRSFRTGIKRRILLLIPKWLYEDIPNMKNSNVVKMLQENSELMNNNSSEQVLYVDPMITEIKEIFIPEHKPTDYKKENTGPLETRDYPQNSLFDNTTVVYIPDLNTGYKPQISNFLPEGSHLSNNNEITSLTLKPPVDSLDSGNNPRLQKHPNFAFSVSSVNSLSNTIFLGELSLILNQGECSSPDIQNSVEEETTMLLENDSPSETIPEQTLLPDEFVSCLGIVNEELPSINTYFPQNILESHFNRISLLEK

[3] = Table 3H, read-out: Human IL23/IL23R ELISA

Structure (SMILES) | IC50 [1, 3] | also measured
CC(=O)N[C@H]1CSSC[C@@H](C(=O)N[C@@H](Cc2ccc(O)cc2)C(=O)N[C@@H](Cc2ccc(-c3ccccc3)cc2)C(=O)N[C@@H](CCCN)C(=O)N[C@@H](CN)C(=O)N[C@@H](Cc2ccccc2)C(=O)NCC(=O)NCCOCC(=O)N[C@H](CCCCN)C(N)=O)NC(=O)[C@H](C(C)C)NC(=O)[C@H](Cc2c[nH]c3ccccc23)NC(=O)[C@H](CC(=O)O)NC(=O)[C@H](C)NC1=O [compound 72] | – | IC50 ([1]; Table 3G, read-out: Human ELISA IL23/IL23R): > 30 µM
COc1ccc(C[C@H](NC(=O)[C@H]2NC(=O)[C@H](CCC(N)=O)NC(=O)[C@H](Cc3c[nH]c4ccccc34)NC(=O)[C@H]([C@@H](C)O)NC(=O)[C@H](CC(N)=O)NC(=O)[C@@H](NC(=O)[C@@H](Cc3ccccc3)NC(C)=O)C(C)(C)SSC2(C)C)C(=O)N[C@@H](Cc2ccc3ccccc3c2)C(=O)NC2(C(=O)N[C@@H](CCCNC(N)=O)C(=O)N[C@@H](CC(N)=O)C(=O)N[C@@H](CC(N)=O)C(N)=O)CCOCC2)cc1 [compound 1048] | – | IC50 [2]: < 0.01 µM
CC(=O)N[C@H]1CSSC[C@@H](C(=O)N[C@@H](Cc2ccc(O)cc2)C(=O)N[C@@H](Cc2c[nH]c3ccccc23)C(=O)N[C@@H](CCC(N)=O)C(=O)N[C@@H](CCC(=O)O)C(=O)N[C@@H](CCCCN)C(=O)NCC(=O)N[C@H](C(=O)N[C@@H](CC(=O)O)C(N)=O)[C@@H](C)O)NC(=O)[C@H](CCC(N)=O)NC(=O)[C@H](Cc2c[nH]c3ccccc23)NC(=O)[C@H]([C@@H](C)O)NC(=O)[C@H](CCCNC(=N)N)NC1=O [compound 397] | 0.118 µM | –
CC(=O)N[C@H]1CSSC[C@@H](C(=O)N[C@@H](Cc2ccc(O)cc2)C(N)=O)NC(=O)[C@H](C(C)C)NC(=O)[C@H](Cc2c[nH]c3ccccc23)NC(=O)[C@H](CC(=O)O)NC(=O)[C@H](C)NC1=O [compound 381] | > 30 µM | –
CC(=O)NCC(=O)N[C@H](CC(N)=O)C(=O)N[C@H](CCC(=O)O)C(=O)N[C@H](CC(C)C)C(=O)N[C@H](Cc1c[nH]c2ccccc12)C(=O)N[C@H](Cc1ccc(O)cc1)C(=O)N[C@@H]1CSSC[C@H](C(N)=O)NC(=O)[C@@H](CCC(N)=O)NC(=O)[C@@H]([C@H](C)O)NC(=O)[C@@H](Cc2c[nH]c3ccccc23)NC(=O)[C@@H](CCC(N)=O)NC1=O [compound 502] | > 30 µM | –
